Measured values reported in patent publication US7368421B2, “Use of dipeptidyl peptidase IV inhibitors in the treatment of multiple sclerosis” (Probiodrug AG, priority 2001, dated 2008).

Sequences of proteins named here, by UniProt entry; tags and fusion partners are left off. Residues count along the entry.
UniProt P14740, 37-767 limits assumed: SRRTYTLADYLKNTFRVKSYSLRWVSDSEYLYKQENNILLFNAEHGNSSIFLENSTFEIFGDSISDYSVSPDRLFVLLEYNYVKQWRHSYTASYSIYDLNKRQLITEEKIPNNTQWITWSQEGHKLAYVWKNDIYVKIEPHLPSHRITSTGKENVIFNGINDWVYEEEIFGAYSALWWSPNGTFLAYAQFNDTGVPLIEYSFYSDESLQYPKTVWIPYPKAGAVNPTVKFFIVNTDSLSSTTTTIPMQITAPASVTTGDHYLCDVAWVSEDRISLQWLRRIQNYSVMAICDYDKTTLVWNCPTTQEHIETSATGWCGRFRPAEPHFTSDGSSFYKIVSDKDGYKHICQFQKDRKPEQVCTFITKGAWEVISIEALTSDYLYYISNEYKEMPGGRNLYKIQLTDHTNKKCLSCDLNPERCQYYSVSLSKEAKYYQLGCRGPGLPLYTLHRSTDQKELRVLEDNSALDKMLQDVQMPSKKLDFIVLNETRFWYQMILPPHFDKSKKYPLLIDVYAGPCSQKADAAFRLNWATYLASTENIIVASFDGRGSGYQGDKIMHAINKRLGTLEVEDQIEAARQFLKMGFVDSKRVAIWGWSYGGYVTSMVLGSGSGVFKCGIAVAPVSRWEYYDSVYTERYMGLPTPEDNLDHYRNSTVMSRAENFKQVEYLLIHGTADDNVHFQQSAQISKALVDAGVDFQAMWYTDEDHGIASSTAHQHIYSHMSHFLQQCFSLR

Target: T1, plasma DP IV activity (Rattus norvegicus, UniProt P14740)
T1 construct: from tissue; host or cells: plasma of Wistar rats
Experiment: DP IV inhibiting activity after intravasal and oral administration to Wistar rats
Assay type: in vivo
Conditions: 100 mg/kg, oral

in vivo DP IV-inhibition at tmax, p.o.	SMILES
no inhibition	CC[C@H](C)[C@H](N)C(=O)N1CCC[C@H]1C(=O)N[C@H](C(=O)O)[C@@H](C)CC [Diprotin A, Ile-Pro-Ile, reference compound]
no inhibition	CC(C)C[C@H](NC(=O)[C@@H]1CCCN1C(=O)[C@@H](N)C(C)C)C(=O)O [Diprotin B, Val-Pro-Leu, reference compound]
